Test results as given in patent US10526291B2, “Potent dual BRD4-kinase inhibitors as cancer therapeutics” (H. Lee Moffitt Cancer Center and Research Institute, Inc., priority 2014, dated 2020).

System: MM.1S cells
Assay: MM.1S cell survival, MTT assay
Assay type: cell-based
Details: Homo sapiens, MM1.S, 72 h, 72 hours compound exposure

Cc1cnc(Nc2ccc(N3CCN(C)CC3)cc2)nc1Nc1cccc(S(=O)(=O)NC(C)(C)C)c1 [drawing 27]
IC50: 1.58 nM
